Experimental data published in patent publication US20240209302A1, “SYSTEMS, METHODS, AND DEVICES FOR EX VIVO ANALYSIS OF RESECTED TISSUE SAMPLES” (The United States of America,as represented by the …, priority 2020, published 2024).

Tested on: CD45-positive cells in gastric cancer metastases to the peritoneum
Assay: Live imaging of immune cell tracking in perfused ex vivo tissue after IL-2
Assay type: cell-based, human
Settings: IL2 added to culture medium; live imaging after 4 days in culture
Experimental: Finally, immune cells can be tracked and monitored in the system of FIG. 7A. With the application of IL-2, a leucocyte activating cytokine, cell velocity and displacement is quantifiable. This can be an important metric for agents that aim to activate various immune subpopulations. For example, FIGS. 11B-11C show Interferon-γ and IL-12 secretion retained after 4 days in culture. Sample platforms in culture on Day 0 and Day 4 were stimulated with PMA (10 ng/ml) or LPS (100 ng/mL) for twelve hours and media was tested for Interferon-γ and IL-12 respectively across various histologies. […] In FIGS. 11E-11F, sample platforms bearing gastric cancer metastases to the peritoneum was evaluated via life imaging after 4 days in culture in system 700 of FIG. 7A.
In any of the above discussed examples, tissue from system 700 was subject to similar tumor imaging techniques. For example, for live imaging, sample platforms were removed from the system 700 at indicated time points and transferred to a 24 well plate containing 1 ml perfusate supplemented with 0.5 μg fluorophore-conjugated antibodies (CD45; CD44; CD117) and incubated for 3 hours at 37° C. […]
Image acquisition was performed on an inverted Leica SP8 setup using multiphoton excitation at 870 nm together with a 25×/0.95 W VISIR lens. […] Images were analyzed using ImageJ software. […]

Question: interleukin-2 [IL2] was tested. Which “displacement of CD45-positive cells” value did it give?
Answer: increase

Question: What about the “velocity of CD45-positive cells” value of the same substance?
Answer: increase
